{
  "sequences": {"note": "Amino acid sequences for entries named in this document (tags omitted).", "UniProt O75762, whole entry, looked up": "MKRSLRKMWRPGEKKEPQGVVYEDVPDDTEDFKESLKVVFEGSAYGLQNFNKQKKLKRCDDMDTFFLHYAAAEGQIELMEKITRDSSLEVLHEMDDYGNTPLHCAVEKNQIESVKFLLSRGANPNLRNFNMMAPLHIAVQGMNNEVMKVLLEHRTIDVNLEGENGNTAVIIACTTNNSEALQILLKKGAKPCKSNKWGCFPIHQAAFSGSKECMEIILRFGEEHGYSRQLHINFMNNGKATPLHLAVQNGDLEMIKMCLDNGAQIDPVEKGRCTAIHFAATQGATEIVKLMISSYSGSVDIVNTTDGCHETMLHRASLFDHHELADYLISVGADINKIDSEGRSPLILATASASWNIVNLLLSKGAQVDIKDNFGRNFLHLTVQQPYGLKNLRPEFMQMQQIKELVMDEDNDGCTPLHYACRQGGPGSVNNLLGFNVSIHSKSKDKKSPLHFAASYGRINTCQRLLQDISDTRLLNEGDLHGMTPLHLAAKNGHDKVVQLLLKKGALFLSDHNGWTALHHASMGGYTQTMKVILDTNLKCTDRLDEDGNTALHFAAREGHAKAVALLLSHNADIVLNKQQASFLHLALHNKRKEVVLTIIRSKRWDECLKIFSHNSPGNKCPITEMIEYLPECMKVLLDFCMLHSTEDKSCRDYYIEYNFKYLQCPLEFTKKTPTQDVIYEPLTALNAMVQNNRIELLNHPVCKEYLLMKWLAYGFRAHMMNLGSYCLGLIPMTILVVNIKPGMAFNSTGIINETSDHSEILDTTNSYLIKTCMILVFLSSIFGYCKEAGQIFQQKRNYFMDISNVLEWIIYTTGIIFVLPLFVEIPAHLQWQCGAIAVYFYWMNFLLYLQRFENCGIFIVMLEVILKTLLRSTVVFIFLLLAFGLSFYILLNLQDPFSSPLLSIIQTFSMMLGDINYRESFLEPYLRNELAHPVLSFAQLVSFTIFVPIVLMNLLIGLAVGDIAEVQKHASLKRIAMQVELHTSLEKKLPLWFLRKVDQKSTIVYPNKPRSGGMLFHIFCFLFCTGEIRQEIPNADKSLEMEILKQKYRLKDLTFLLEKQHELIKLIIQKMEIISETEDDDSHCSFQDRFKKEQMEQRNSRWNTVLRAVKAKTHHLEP"},
  "source": "BindingDB's records for 22319196",
  "key": {"[1]": {"molecular_target": "Transient receptor potential cation channel subfamily A member 1 (Homo sapiens, UniProt O75762)", "assay": "Agonist activity at full length human TRPA1 transfected in HEK293F cells assessed as increase in Ca2+ influx by FLIPR calcium assay"}, "[2]": {"molecular_target": "Transient receptor potential cation channel subfamily A member 1 (UniProt A0A1D5QMT1)", "assay": "Agonist activity at rhesus monkey TRPA1 transfected in HEK293F cells assessed as increase in Ca2+ influx by FLIPR calcium assay"}},
  "data": [
    {"smiles": "O=[N+]([O-])c1cc([N+](=O)[O-])c(O)c([N+](=O)[O-])c1", "values": [
      {"measurement": "EC50", "setting": "[1]", "result": 107, "unit": "µM"},
      {"measurement": "EC50", "setting": "[2]", "result": "> 300", "unit": "µM"}
    ]}
  ]
}
